Measured values reported in ChEMBL document CHEMBL1149262, “Monoamine transporter binding, locomotor activity, and drug discrimination properties of 3-(4-substituted-phenyl)tropane-2-carboxylic acid methyl ester isomers” (J Med Chem, 2004).

Amino acid sequences for entries named in this document (tags omitted).
UniProt P31645, whole entry: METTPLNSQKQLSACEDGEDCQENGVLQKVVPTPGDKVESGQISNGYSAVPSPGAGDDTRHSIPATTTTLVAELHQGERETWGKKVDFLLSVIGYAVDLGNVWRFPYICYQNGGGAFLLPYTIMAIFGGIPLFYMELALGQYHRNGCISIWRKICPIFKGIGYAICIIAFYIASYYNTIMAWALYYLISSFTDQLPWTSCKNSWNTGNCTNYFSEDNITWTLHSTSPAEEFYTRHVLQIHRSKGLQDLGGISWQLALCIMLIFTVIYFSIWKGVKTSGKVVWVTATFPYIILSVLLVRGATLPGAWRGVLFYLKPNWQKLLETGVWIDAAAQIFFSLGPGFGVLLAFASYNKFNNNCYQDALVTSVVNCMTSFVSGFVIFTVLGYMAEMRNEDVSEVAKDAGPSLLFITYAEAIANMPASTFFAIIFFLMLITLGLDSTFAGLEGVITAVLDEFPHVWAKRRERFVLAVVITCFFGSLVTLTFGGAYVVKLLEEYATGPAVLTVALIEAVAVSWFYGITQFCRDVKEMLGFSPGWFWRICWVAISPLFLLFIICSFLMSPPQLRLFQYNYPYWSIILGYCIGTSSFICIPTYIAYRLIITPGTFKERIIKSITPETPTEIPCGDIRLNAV
UniProt P23975, whole entry: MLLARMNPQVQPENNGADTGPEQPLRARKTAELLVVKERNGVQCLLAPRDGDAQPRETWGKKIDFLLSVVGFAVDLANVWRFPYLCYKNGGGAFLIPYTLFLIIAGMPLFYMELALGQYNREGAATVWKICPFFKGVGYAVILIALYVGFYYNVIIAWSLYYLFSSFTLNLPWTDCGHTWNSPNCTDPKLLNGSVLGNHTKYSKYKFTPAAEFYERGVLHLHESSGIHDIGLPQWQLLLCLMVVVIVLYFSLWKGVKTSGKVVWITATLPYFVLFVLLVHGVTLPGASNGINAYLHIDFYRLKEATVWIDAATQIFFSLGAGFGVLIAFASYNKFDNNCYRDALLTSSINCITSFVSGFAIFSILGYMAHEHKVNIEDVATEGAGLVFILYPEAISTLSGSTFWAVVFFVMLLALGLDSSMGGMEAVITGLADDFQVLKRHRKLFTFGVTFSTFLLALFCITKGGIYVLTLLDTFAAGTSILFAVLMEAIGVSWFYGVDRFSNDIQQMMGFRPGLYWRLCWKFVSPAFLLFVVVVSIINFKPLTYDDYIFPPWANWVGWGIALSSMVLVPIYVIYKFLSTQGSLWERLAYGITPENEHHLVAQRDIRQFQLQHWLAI
UniProt Q01959, whole entry: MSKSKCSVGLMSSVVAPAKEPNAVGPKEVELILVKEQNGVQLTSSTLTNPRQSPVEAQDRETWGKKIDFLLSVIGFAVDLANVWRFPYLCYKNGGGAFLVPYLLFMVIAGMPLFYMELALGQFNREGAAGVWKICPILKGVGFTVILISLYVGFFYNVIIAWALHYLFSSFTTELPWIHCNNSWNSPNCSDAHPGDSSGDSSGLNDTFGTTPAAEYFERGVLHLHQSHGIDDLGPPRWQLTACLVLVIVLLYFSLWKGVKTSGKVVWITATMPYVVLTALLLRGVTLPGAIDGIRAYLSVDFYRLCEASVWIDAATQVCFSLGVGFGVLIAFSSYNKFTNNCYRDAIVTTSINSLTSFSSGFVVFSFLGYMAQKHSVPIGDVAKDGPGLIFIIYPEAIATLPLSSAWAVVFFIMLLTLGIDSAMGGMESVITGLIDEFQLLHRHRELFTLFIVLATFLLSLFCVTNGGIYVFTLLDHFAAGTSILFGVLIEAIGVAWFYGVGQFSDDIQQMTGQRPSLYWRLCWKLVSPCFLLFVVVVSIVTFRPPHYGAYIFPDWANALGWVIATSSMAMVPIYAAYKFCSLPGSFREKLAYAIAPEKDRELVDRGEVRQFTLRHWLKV

Key:
[1] = target: Sodium-dependent serotonin transporter (Homo sapiens, UniProt P31645)
[2] = target: Sodium-dependent noradrenaline transporter (Homo sapiens, UniProt P23975); experiment: Displacement of [3H]nisoxetine from NET
[3] = target: Sodium-dependent dopamine transporter (Homo sapiens, UniProt Q01959); experiment: Displacement of [3H]WIN-35428 from DAT
Mus musculus = experiment: Locomotor activity in ip dosed CD1 mouse after 1 hr relative to cocaine; format: functional

`COC(=O)C1C2CC[C@H](C[C@@H]1c1ccc(Cl)cc1)N2C` (some centres not stated) showed an IC50 [1] of 44.5 nM and a Ki [1] of 4 nM.

`COC(=O)[C@H]1[C@H]2CCC(C[C@H]1c1ccc(Cl)cc1)N2C` gave an IC50 [1] of 1800 nM, a Ki [1] of 441 nM and an IC50 [2] of 559 nM. It also gave a Ki [2] of 280 nM, an IC50 [3] of 11.7 nM and a Ratio (Mus musculus) of 0.2.

`COC(=O)[C@H]1C2CCC(C[C@@H]1c1ccc(Cl)cc1)N2C` (some centres not stated) gave an IC50 [1] of 1450 nM, a Ki [1] of 356 nM and an IC50 [2] of 444 nM. The Ki [2] was 222 nM and the Ratio (Mus musculus) was 0.7.

With `COC(=O)[C@@H]1C2CCC(C[C@H]1c1ccccc1)N2C` (some centres not stated) the Ratio (Mus musculus) was 1.

Compound `COC(=O)[C@@H]1C2CC[C@H](C[C@@H]1c1ccccc1)N2C` has a Ki [1] of 178 nM and a Ratio (Mus musculus) of 2.7.

`COC(=O)[C@H]1C2CCC(C[C@@H]1c1ccccc1)N2C` (some centres not stated) gave a Ratio (Mus musculus) of 0.4.

`COC(=O)[C@@H]1C2CCC(C[C@H]1c1ccc(Cl)cc1)N2C` (some centres not stated) showed an IC50 [1] of 53 nM, a Ki [1] of 4.8 nM and an IC50 [2] of 5.14 nM. It also gave a Ki [2] of 3.1 nM and a Ratio (Mus musculus) of 2.6.
